We go through 1 molecule from ChEMBL document CHEMBL1828559, “Synthesis and characterization of high-affinity 4,4-difluoro-4-bora-3a,4a-diaza-s-indacene-labeled fluorescent ligands for human β-adrenoceptors” (J Med Chem, 2011).

The chains behind the UniProt entries cited, without tags or fusion partners.
UniProt P08588, whole entry: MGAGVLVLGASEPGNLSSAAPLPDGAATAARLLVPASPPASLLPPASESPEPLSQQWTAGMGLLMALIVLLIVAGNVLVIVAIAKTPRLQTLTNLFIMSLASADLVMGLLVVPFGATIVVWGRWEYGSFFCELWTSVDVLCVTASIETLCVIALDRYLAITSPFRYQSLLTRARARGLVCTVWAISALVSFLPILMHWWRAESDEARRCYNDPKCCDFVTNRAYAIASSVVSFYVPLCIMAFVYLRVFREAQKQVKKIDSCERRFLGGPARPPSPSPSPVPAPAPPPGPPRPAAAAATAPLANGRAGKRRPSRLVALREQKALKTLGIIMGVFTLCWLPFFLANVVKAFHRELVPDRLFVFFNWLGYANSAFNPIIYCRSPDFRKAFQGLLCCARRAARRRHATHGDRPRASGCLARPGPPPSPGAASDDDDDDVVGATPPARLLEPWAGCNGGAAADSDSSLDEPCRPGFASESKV

The target of the experiment is Beta-1 adrenergic receptor (Homo sapiens, UniProt P08588). The experiment can be described thus: Antagonist activity at human beta-1 adrenergic receptor site 2 expressed in CGP 12177-stimulated CHO-K1 cells assessed as CRE-SPAP level by […].

As a reminder, the Kd is a measure of binding affinity in units of concentration. For `C=CCc1ccccc1OCC(O)CNC(C)C` (stereo unspecified) [ALPRENOLOL], the Kd was 0.178 µM.
